The values below come from ChEMBL document CHEMBL4715766, “Systemic structure-activity relationship study of phenyl polyyne diols as potential chemopreventive agents” (Bioorg Med Chem Lett, 2016).

Chains of the proteins cited; added tags and fusions are not shown.
UniProt Q64669, whole entry: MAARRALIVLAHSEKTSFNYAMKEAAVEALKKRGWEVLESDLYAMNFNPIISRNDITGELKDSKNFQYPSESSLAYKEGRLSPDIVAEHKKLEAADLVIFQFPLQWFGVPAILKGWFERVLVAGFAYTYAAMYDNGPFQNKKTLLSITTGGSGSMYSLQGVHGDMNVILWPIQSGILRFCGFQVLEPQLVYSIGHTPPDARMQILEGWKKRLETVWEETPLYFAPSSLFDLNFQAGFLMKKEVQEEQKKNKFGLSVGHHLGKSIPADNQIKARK

For the assay, the target named is NAD(P)H dehydrogenase [quinone] 1 (Mus musculus) (UniProt Q64669). Particulars: Hepa1c1c7, filed as activator.

Molecules are shown by their SMILES.

`CCCCCC(O)C#CC#CC(O)c1cc(OC)c(OC)cc1F` (configuration not stated): the CD amounted to 3.3 µM. The value for `CCCCCC(O)C#CC#CC(O)c1cc(Br)ccc1OC` (configuration not stated) was 17.3 µM; that for `CCCCCC(O)C#CC#CC(O)c1ccc(F)c(F)c1` (configuration not stated) was 7 µM. The value for `CCCCCC(O)C#CC#CC(O)c1cccc(F)c1` (configuration not stated) was 11.9 µM; that for `CCCC(O)C#CC#CC(O)c1cccc(Cl)c1` (configuration not stated) was 3 µM. For `CCCCCC(O)C#CC#CC(O)c1ccc(OC)cc1C` (configuration not stated) the value was 15 µM; for `CCCCCCCCCC(O)C#CC#CC(O)c1cccc(Cl)c1` (configuration not stated), 15.4 µM. `CCCCCC(O)C#CC#CC(O)c1ccccc1` (configuration not stated): the CD is 6.5 µM.

In the case of `CCCCCC(O)C#CC#CC(O)c1cccc(Cl)c1` (configuration not stated), the CD is 1.3 µM. The value for `OC(C#CC#CC(O)C1CCCCC1)c1ccc(F)cc1` (configuration not stated) was 5.7 µM. Turning to `CCCCCC(O)C#CC#CC(O)c1ccc(F)cc1` (configuration not stated), the CD turned out to be 3.2 µM. The value for `CCCCCC(O)C#CC#CC(O)c1ccc(F)cc1Cl` (configuration not stated) was 24.3 µM; that for `CCCCCC(O)C#CC#CC(O)c1cc(C(F)(F)F)cc(C(F)(F)F)c1` (configuration not stated) was 50.8 µM; that for `CC(C)CC(O)C#CC#CC(O)c1ccc(F)cc1` (configuration not stated) was 5.1 µM. The value for `CCCCCC(O)C#CC#CC(O)c1cccc(Br)c1` (configuration not stated) was 12.1 µM. The value for `CCCCCC(O)C#CC#CC(O)c1cccc(Cl)c1Cl` (configuration not stated) was 12.3 µM; that for `CCCCCC(O)C#CC#CC(O)c1cc(Cl)cc(Cl)c1` (configuration not stated) was 19.7 µM; that for `CCCCCC(O)C#CC#CC(O)c1ccc2c(c1)OCCO2` (configuration not stated) was 3 µM.

On to `OC(C#CC#CC(O)C1CCCCC1)c1cccc(Cl)c1` (configuration not stated), for which the CD turned out to be 12 µM.

In the case of `CCCCCC(O)C#CC#CC(O)c1ccc(C(C)(C)C)cc1` (configuration not stated), the CD came to 8.8 µM.

In turn, `CCCCCC(O)C#CC#CC(O)c1ccc(F)c(Cl)c1` (configuration not stated) had a CD of 4.4 µM.

For the compound `CCCCCC(O)C#CC#CC(O)c1ccc(OC)c(OC)c1OC` (configuration not stated), the CD came out at 17.6 µM. The compound `CCCCCC(O)C#CC#CC(O)c1cccc2ccccc12` (configuration not stated) showed a CD of 11.4 µM.

The compound `CCCCCC(O)C#CC#CC(O)c1ccc(OCc2ccccc2)c(OC)c1` (configuration not stated) had a CD of 12.7 µM. The value for `CCCCCC(O)C#CC#CC(O)c1ccc(Cl)cc1Cl` (configuration not stated) was 22.3 µM; that for `CCCCCC(O)C#CC#CC(O)c1ccc(Br)cc1` (configuration not stated) was 13.6 µM; that for `CCCCCCCCCC(O)C#CC#CC(O)c1ccc(F)cc1` (configuration not stated) was 7 µM. The value for `CCCCCC(O)C#CC#CC(O)c1ccc2c(c1)OCO2` (configuration not stated) was 1.8 µM; that for `CCCCCC(O)C#CC#CC(O)c1ccc(Cl)c(F)c1` (configuration not stated) was 4.9 µM; that for `CCCCCC(O)C#CC#CC(O)c1cc(Cl)ccc1Cl` (configuration not stated) was 6.2 µM. For `CCCCCC(O)C#CC#CC(O)c1ccc(Cl)cc1` (configuration not stated) the value was 3.3 µM. `CCCCCC(O)C#CC#CC(O)c1ccc(Cl)c(Cl)c1` (configuration not stated) returned a CD of 6.7 µM. The value for `CCCC(O)C#CC#CC(O)c1ccc(F)cc1` (configuration not stated) was 0.7 µM; that for `CCCCCC(O)C#CC#CC(O)c1cc(OC)c(OC)cc1OC` (configuration not stated) was 29.8 µM; that for `CC(C)CC(O)C#CC#CC(O)c1cccc(Cl)c1` (configuration not stated) was 5.1 µM. For `CCCCCC(O)C#CC#CC(O)c1ccc2ccccc2c1` (configuration not stated) the value was 25.8 µM. The value for `CCCCCC(O)C#CC#CC(O)c1ccccc1Cl` (configuration not stated) was 22.2 µM.
